Source: PubChem BioAssay AID2066 (NMMLSC, 2009)
The list shows a part of the results, in another mix than the full data. Active and inactive are the calls of the source.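 How the source made its calls: active means GFP response relative to DMSO above a set limit, near screen average plus 3 SD (cut at about 150% in these data); inconclusive means fewer than 70 cells counted for the yeast strain; inactive means the rest.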

Assay: modulators of AGP1-GFP expression in yeast TOR pathway, primary screen, cell-based, multiplex flow cytometry, S. cerevisiae, MLPCN library (AID 2066);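 further: median GFP channel fluorescence of the gated AGP1 strain per well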
Conditions: 3 h, at 10 µM, stronger effect = higher value, GFP as percent of DMSO wells

SMILES	GFP response vs DMSO
CN1CCN(CCOC(=O)C(O)(c2ccccc2)c2ccccc2)CC1	inactive: 94.1%
COc1ccc(NC2CCN(C(=O)OC(C)(C)C)CC2)cc1	inactive: 101%
COc1cc(C(=O)NCC2(N3CCCCC3)CCCCC2)ccc1OC(F)F	inactive: 99.4%
O=C(NCC1(N2CCOCC2)CCCCC1)c1cc(=O)[nH]c2ccccc12	inactive: 95.1%
O=C(NCC1(N2CCCCC2)CCCCC1)c1cccc(C(F)(F)F)c1	inactive: 104%
O=C(NCC1(N2CCCCC2)CCCCC1)c1cccc([N+](=O)[O-])c1	inactive: 114%
CCN1CCC(Nc2ccc(Cl)cc2)CC1	inactive: 96.7%
N#CC1(Nc2ccccc2)CCN(CCc2ccccc2)CC1	inactive: 101%
O=C(NCC1(N2CCCCC2)CCCCC1)c1ccc(OC(F)F)cc1	inactive: 102%
CCCOc1ccc(C(=O)NCC2(N(C)C)CCCCC2)cc1OC	inactive: 83.5%
CN1CCC(Nc2cccc(F)c2)CC1	inactive: 110%
O=C(NCC1(N2CCCCC2)CCCCC1)c1cncc(Br)c1	inactive: 102%
COc1cc(OC)c(C(=O)NCC2(N(C)C)CCCCC2)cc1OC	inactive: 102%
O=C(NCC1(N2CCOCC2)CCCCC1)c1cc(F)c(F)cc1Cl	inactive: 101%
COc1ccc(CN(CCCl)CCCl)cc1Cl	inactive: 92.8%
CN(C)c1cccc(C(=O)NCC2(N3CCCCC3)CCCCC2)c1	inactive: 98.8%
CC(C)c1ccc(NC2CCN(C(=O)OC(C)(C)C)CC2)cc1	inactive: 102%
CCOC(=O)N1CCC(Nc2ccc(OC)cc2)CC1	inactive: 98%
N#CC1(Nc2ccccc2)CCN(Cc2ccccc2)CC1	inactive: 116%
O=C(NCC1(N2CCCCC2)CCCCC1)c1ccc(Cl)s1	inactive: 97.1%
COc1ccc(Cl)cc1C(=O)NCC1(N2CCOCC2)CCCCC1	inactive: 101%
O=C(NCC1(N2CCOCC2)CCCCC1)c1cc2ccccc2o1	inactive: 95.6%

SMILES	GFP response vs DMSO
O=C(NCC1(N2CCCCC2)CCCCC1)c1ccc(Cl)nc1	inactive: 84%
Cc1cc(C)cc(N(C(=O)c2ccccc2)C2CCN(C(=O)OC(C)(C)C)CC2)c1	inactive: 94.8%
CSc1ccccc1C(=O)NCC1(N2CCCCC2)CCCCC1	inactive: 105%
O=C(NCC1(N2CCCCC2)CCCCC1)c1ccc(=O)[nH]c1	inactive: 98.9%
O=C(NCC1(N2CCCCC2)CCCCC1)c1cccs1	inactive: 108%
COc1ccc(C(=O)NCC2(N3CCCCC3)CCCCC2)cc1	inactive: 98.8%
CC(C)(C)OC(=O)N1CCC(N(C(=O)c2ccccc2)c2ccc(F)cc2)CC1	inactive: 13%
COc1ccc(C(=O)NCC2(N3CCCCC3)CCCCC2)c(OC)c1OC	inactive: 94.7%
CCOC(=O)N1CCC(Nc2cccc(C)c2)CC1	inactive: 101%
COc1cc(C(=O)NCC2(N(C)C)CCCCC2)ccc1OC(F)F	inactive: 74.4%
Cc1ccc(OCC(C)C)c(CN(CCCl)CCCl)c1	inactive: 106%
O=C(NCC1(N2CCCCC2)CCCCC1)c1ccc(F)cc1	inactive: 97.3%
COc1ccc(NC2CCN(CCc3ccccc3)CC2)c(OC)c1	inactive: 105%
CCOC(=O)N1CCC(Nc2ccc(F)cc2)CC1	inactive: 105%
CCOc1ccc(C)cc1CN(CCCl)CCCl	inactive: 90.9%
O=C(NCC1(N2CCCCC2)CCCCC1)c1ccco1	inactive: 103%
CN(C)c1ccc(C(=O)NCC2(N3CCCCC3)CCCCC2)cc1	inactive: 101%
CCN1CCC(Nc2cccc(F)c2)CC1	inactive: 95.3%
Cc1ccc(C(=O)NCC2(N3CCCCC3)CCCCC2)o1	inactive: 103%
Fc1ccccc1NC1CCN(Cc2ccccc2)CC1	inactive: 97%
COc1cc(OC)cc(C(=O)NCC2(N3CCCCC3)CCCCC2)c1	inactive: 98%
CCCOc1ccc(C)cc1CN(CCCl)CCCl	inactive: 97%

SMILES	GFP response vs DMSO
CN1CCC(Nc2ccc(Cl)cc2)CC1	inactive: 99.7%
CCC(CO)(C(=O)OC1CN2CCC1CC2)c1ccccc1 (stereo not given)	inactive: 98.1%
COc1cc(OC)cc(C(=O)NCC2(N3CCOCC3)CCCCC2)c1	inactive: 102%
COc1cccc(C(=O)N(c2cc(C)cc(C)c2)C2CCN(C(=O)OC(C)(C)C)CC2)c1	inactive: 104%
CCCOc1ccc(C(=O)NCC2(N(C)C)CCCCC2)cc1	inactive: 94.7%
CC(C)(C)OC(=O)N1CCC(Nc2ccccc2)CC1	inactive: 93.2%
O=C(O)C1(Nc2ccccc2)CCN(Cc2ccccc2)CC1	inactive: 97.8%
CCOc1ncccc1C(=O)NCC1(N2CCOCC2)CCCCC1	inactive: 106%
CN1CCC(Nc2ccc(F)c(Cl)c2)CC1	inactive: 98.8%
CCc1cc(C(=O)NCC2(N3CCCCC3)CCCCC2)sc1C	inactive: 96.5%
O=C(OC1CN2CCC1CC2)C1c2ccccc2C=Cc2ccccc21 (stereo not given)	inactive: 102%
N/C(=N\O)c1c(N)no[n+]1[O-]	inactive: 99.6%
CCOC(=O)N1CCC(Nc2ccc(C)cc2)CC1	inactive: 98%
COc1ccc(C(=O)NCC2(N3CCOCC3)CCCCC2)cc1OC	inactive: 95.5%
O=C(NCC1(N2CCOCC2)CCCCC1)c1cc(Br)ccc1Cl	inactive: 95.4%
COc1cc(C(=O)NCC2(N3CCOCC3)CCCCC2)cc(OC)c1C	inactive: 95.3%
c1ccc(CN2CCC(Nc3ccccc3)CC2)cc1	inactive: 101%
CCCN1CCC(Nc2cc(OC)cc(OC)c2)CC1	inactive: 97.8%
CN(C)C1(CNC(=O)c2cccc(C#N)c2)CCCCC1	inactive: 105%
CC(C)(C)OC(=O)N1CCC(N(C(=O)c2ccccc2)c2ccc(Cl)cc2)CC1	inactive: 105%
N#Cc1ccc(C(=O)NCC2(N3CCCCC3)CCCCC2)cc1	inactive: 113%
